Target: GPR40 (Homo sapiens, UniProt O14842)
Assay: Aequorin Ca2+ flux assay in CHO cell line stably expressing GPR40
Format: cell-based
Conditions: CHO-GPR40 stable cell line; for Emax (efficacy): compared to natural free fatty acid ligands

Protein sequences, listed by entry. Tags and fused reporters are not part of them.
UniProt O14842, whole entry: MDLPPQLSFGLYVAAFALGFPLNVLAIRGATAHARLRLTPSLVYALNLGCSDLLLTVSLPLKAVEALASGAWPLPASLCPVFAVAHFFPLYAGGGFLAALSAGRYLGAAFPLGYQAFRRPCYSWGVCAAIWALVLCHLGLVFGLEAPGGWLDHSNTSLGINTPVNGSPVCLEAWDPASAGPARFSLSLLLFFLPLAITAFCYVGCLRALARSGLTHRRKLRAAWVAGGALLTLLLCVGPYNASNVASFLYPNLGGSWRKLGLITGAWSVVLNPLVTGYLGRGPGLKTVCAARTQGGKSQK

Row | Compound | EC50 [µM] | Emax (efficacy) [%]
1 | CC#C[C@H](CC(=O)O)c1ccc(OCc2ccc(-c3cccc(OC)c3)cc2)cc1 (racemic) | 3.8 | 98
2 | CC#C[C@@H](CC(=O)O)c1ccc(OCc2ccc(-c3cccc(OC)c3)cc2)cc1 (racemic) | – | 30
